## Apparent affinities of Ab-14 variants for a coronavirus HR2 peptide

Binding partner: SARS-CoV-2 spike HR2 peptide, sequence PDVDLGDISGINAS.

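The starting antibody came from a phage panning campaign against this peptide. These sequences belong to a second round, designed from the earlier measurements on random variants of the parent. Several design methods are mixed in this list. In AlphaSeq, yeast of one mating type display the scFv and yeast of the other type display the target. Mating (16 h, 30 °C) was followed by selection of diploids and sequencing of their barcodes. Scores were corrected for input abundance and mapped to Kd with protein pairs of known affinity run in the same pool. The assay was run in six technical replicates.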

Each scFv is VH, a (GGGGS)3 linker, VL, as in the parent Ab-14, and differs from it in the CDRs of the light chain only.
VH: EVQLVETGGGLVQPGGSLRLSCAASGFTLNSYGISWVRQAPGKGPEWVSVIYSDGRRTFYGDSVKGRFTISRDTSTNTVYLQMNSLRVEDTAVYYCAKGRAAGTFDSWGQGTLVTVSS
VL: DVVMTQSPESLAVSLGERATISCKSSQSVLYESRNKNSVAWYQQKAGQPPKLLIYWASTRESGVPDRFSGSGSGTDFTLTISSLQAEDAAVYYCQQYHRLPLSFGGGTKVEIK

The parent's light chain CDRs are KSSQSVLYESRNKNSVA, WASTRES, QQYHRLPLS; each variant's own CDRs replace them letter for letter.
Each Kd is an estimate from the mating assay, the geometric mean of the replicates in which the pair was seen; lower is stronger.
"nd" means that the variant was in the library but no mating with the target was seen in any replicate; the authors take this as a sign of poor binding, and no number exists.
Entries are sorted by rising average, undetected variants last.
Of ten entries with the parent sequence, four were seen in most replicates (averages 2.2 nM to 240 nM), three in one and three in none, so single entries are noisy.
Empty control strains, which show no peptide, gave a signal in 4% of pairings with all light chain designs; the median was 430 nM and 95% of these signals were weaker than 38 nM. No background was subtracted. The control count says in how many pairings with the empty strains this scFv gave a signal.
Values of this round are not directly comparable with the first-round values of the same sequences.
The authors' rule: three or more of the six replicates give a measured affinity, fewer mean a poor binder.

| CDR-L1 | CDR-L2 | CDR-L3 | Kd (apparent) | replicates with signal | control signals |
|---|---|---|---|---|---|
| KLSQQMLYESRNHNNVA | AASQRED | QQYHRLPLS | 290 pM | 6 of 6 | 3 of 18 |
| KFSQSVLYESRTKNSVA | NAHTRET | QQYHRLPLS | 430 pM | 6 of 6 | 0 of 18 |
| KLEQSALYESRNKNSVA | NASQRES | QQYHRLPLS | 480 pM | 6 of 6 | 2 of 18 |
| KLSMSQEYESRNKNSVA | NASTRLT | QQYHRLPLS | 500 pM | 6 of 6 | 3 of 18 |
| KLPQSVLYESRNKNSVA | HASTREQ | QQYHRLPLS | 500 pM | 6 of 6 | 2 of 18 |
| KLEQSVLYESRDKNSVA | HASTRED | QQYHRLPLS | 510 pM | 6 of 6 | 1 of 18 |
| KLSQSFLYEQRNKNSVA | NASQRES | QQYHRLPLS | 750 pM | 6 of 6 | 1 of 18 |
| KLRQSTLYESRNKNSVA | AASTRLS | QQYHRLPLS | 770 pM | 6 of 6 | 0 of 18 |
| KLQQQGLYESRNKNSVA | SASTREE | QQYHRLPLS | 900 pM | 6 of 6 | 4 of 18 |
| KSDQEQLYENRMKNSVA | DASLRES | QQYHRLPLS | 920 pM | 6 of 6 | 0 of 18 |
| SFSQSVLYESRNKNSVA | HASTRES | QQYHRLPLS | 1.0 nM | 6 of 6 | 1 of 18 |
| KFSQSVWYESRNKNSVA | EASTRES | QQYHRLPLS | 1.1 nM | 6 of 6 | 3 of 18 |
| KLMQSCLYESRNKNSVA | NASTRES | QQYHRLPLS | 1.2 nM | 6 of 6 | 2 of 18 |
| KSSQSELGCSRGKNSVA | DASTRES | QQYHRLPLS | 1.2 nM | 6 of 6 | 3 of 18 |
| KFSQLVLYESRAKNSVA | DASQRLS | QQYHRLPLS | 1.2 nM | 6 of 6 | 0 of 18 |
| KLSQSVDYESRNKAQVA | DASTRMS | QQYHRLPLS | 1.2 nM | 6 of 6 | 1 of 18 |
| KLQQSALYESRNKNSVA | GASTRES | QQYHRLPLS | 1.4 nM | 6 of 6 | 3 of 18 |
| KSSQSWGYESRNKNSVA | GASQRES | QQYHRLPLS | 1.4 nM | 6 of 6 | 0 of 18 |
| KLSQSVPYESRNKNSVA | MASTRES | QQYHRLPLS | 1.5 nM | 6 of 6 | 5 of 18 |
| KLSFSVLYESRNKNNVA | EASTRES | QQYHRLPLS | 1.7 nM | 6 of 6 | 1 of 18 |
| KLLQSVNIGSRALNSVA | QMETRVD | QQYHRLPLS | 1.7 nM | 6 of 6 | 2 of 18 |
| KFQWSNPYESRNKNSVA | NASTRES | QQYWRLPLS | 1.8 nM | 6 of 6 | 0 of 18 |
| KINGYTLQPNMDHNNVA | HGTMKEA | QQYARIPLM | 1.8 nM | 6 of 6 | 2 of 18 |
| KLGEQERMNGMANKNVA | AMNTRVD | QEYHRLPLI | 1.9 nM | 6 of 6 | 0 of 18 |
| KLMQEMLYESRLANSVA | NASQREE | QQYHRLPLS | 1.9 nM | 6 of 6 | 1 of 18 |
| HVSMLTMMGMKQRNSVA | QMTLREN | QQYDRLPLM | 2.0 nM | 6 of 6 | 0 of 18 |
| KLSMSQEYESINKNSVA | NASTRLT | QQYHRLPLS | 2.1 nM | 6 of 6 | 0 of 18 |
| MMSSLMGYESRHINNVA | QTTTRES | QQYDRLPLM | 2.1 nM | 6 of 6 | 0 of 18 |
| LLSQSELLESRNWNAVA | HASTRMS | QQYHRLPLS | 2.2 nM | 6 of 6 | 2 of 18 |
| RLRELNFYSGNGRNNIA | DAHIHEV | QQYSQLPLF | 2.4 nM | 6 of 6 | 0 of 18 |
| KSSQSVDYESRNNNSVA | GGSTRIS | QQYHRLPLS | 2.6 nM | 6 of 6 | 0 of 18 |
| NLGFEDANDNRGMMNVA | DVNTVGE | QQYNRLPLA | 2.7 nM | 6 of 6 | 1 of 18 |
| KVWQSVLGQERNKMSVA | QASTRES | QQYHRLPLS | 2.9 nM | 6 of 6 | 0 of 18 |
| KVSQSELYESRNKNAVA | NASTRES | QQYHRLPLS | 2.9 nM | 6 of 6 | 0 of 18 |
| KASQAFLYESRNKNSVA | DANTRES | QQYHRLPLS | 3.1 nM | 6 of 6 | 0 of 18 |
| QLTMITGHVSMSKNNVA | EMETREE | QQYDRLPLS | 4.1 nM | 6 of 6 | 0 of 18 |
| KISQMARVGSTHSNSIA | EEATRSD | QQYHRLPLS | 5.0 nM | 6 of 6 | 1 of 18 |
| KSLQSQLYESRNFNSVA | HASTRED | QQYHRLPLS | 5.5 nM | 6 of 6 | 2 of 18 |
| QLGKQAQGLMVSNQSVA | NEEMRAK | QQYFRLPFI | 8.1 nM | 6 of 6 | 0 of 18 |
| KLRHHNLDFYEVENSIA | GESMRAA | QQYYRLPLN | 8.1 nM | 6 of 6 | 1 of 18 |
| HTQHLGFGDPAWANSIA | ERSQVCA | QQYFRLPLI | 8.7 nM | 6 of 6 | 0 of 18 |
| KMSQSVLYESRNKNSVA | WASTRES | TQYHILPLS | 9.5 nM | 5 of 6 | 1 of 18 |
| KSSQSWLYESRNKWSVA | GASTRES | QQYHRLPLS | 9.9 nM | 6 of 6 | 0 of 18 |
| SLSGIMRLENKVSNSIA | EMTTRGE | QQYDRLPLS | 10 nM | 6 of 6 | 1 of 18 |
| KVSQEMLYESRMANSVA | NASQREE | QQYHRLPLS | 11 nM | 6 of 6 | 0 of 18 |
| KSSQSVDYESRNKNSVA | NATTRES | QQYHRPPLS | 12 nM | 6 of 6 | 1 of 18 |
| SLQEQSFVGQKDSNSMA | DSECKYN | QQYFQLPLM | 14 nM | 5 of 6 | 0 of 18 |
| KSSLSVLYPSRNENSVA | YASTRES | QQYHRLPLS | 19 nM | 6 of 6 | 1 of 18 |
| KLSSVIGTEKVHGNNVA | EMETREN | QQYDRLPLS | 21 nM | 6 of 6 | 0 of 18 |
| KSSQSVLYESNNKNSVA | WASTRES | QQYHRLPFS | 28 nM | 6 of 6 | 1 of 18 |
| KVSSFMRGLMMRTDSIA | DNETRQS | QQYDRLPLS | 40 nM | 5 of 6 | 0 of 18 |
| KLSQSVLYESRNKNSVA | WASTRES | QQYARLPLS | 41 nM | 6 of 6 | 0 of 18 |
| KLMWSVMLQSRNKNSVA | QASTRMM | QQYHRLPLS | 41 nM | 4 of 6 | 1 of 18 |
| KSSQGELYESRNKNSVA | WASERES | QQYHYLPLS | 52 nM | 4 of 6 | 0 of 18 |
| KSSQGVLYEMRNKNSVA | WASTRES | QQYHRLPLS | 63 nM | 2 of 6 | 0 of 18 |
| KLRQSQLYESRNKNSVA | NASTRLS | QQYHRLPLS | 86 nM | 6 of 6 | 0 of 18 |
| KLSISYLFESQEKNSIA | ENSTREN | QHYHRLPLS | 98 nM | 1 of 6 | 1 of 18 |
| HIGLATMLEETVRNSVA | NNSTRED | QQYDRLPLS | 440 nM | 6 of 6 | 1 of 18 |
| MISQLLNMGQFAINSVA | QASIRNQ | QQYDRLPLI | 460 nM | 1 of 6 | 0 of 18 |
| KSSQAVLYESRNKSSVA | WASTRES | QQYHRLPLS | 1.3 µM | 1 of 6 | 0 of 18 |
| KSSQMLLYESRNKNSVA | WASTRES | QQYHGLPLS | nd | 0 of 6 | 1 of 18 |
| KSGQGVLYESRNKNSVA | GASTCYS | QQYHRLVLS | nd | 0 of 6 | 0 of 18 |
| KSSQSVLYESRNKNDIA | WASTRES | QQYHIDPLC | nd | 0 of 6 | 0 of 18 |
| HSEPSVLYESRNKWSVA | NASYRES | VQYHRLPLS | nd | 0 of 6 | 0 of 18 |

The first 3 variants above that were never detected:

| CDR-L1 | CDR-L2 | CDR-L3 | Kd (apparent) | replicates with signal | control signals |
|---|---|---|---|---|---|
| KSSQMLLYESRNKNSVA | WASTRES | QQYHGLPLS | nd | 0 of 6 | 1 of 18 |
| KSGQGVLYESRNKNSVA | GASTCYS | QQYHRLVLS | nd | 0 of 6 | 0 of 18 |
| KSSQSVLYESRNKNDIA | WASTRES | QQYHIDPLC | nd | 0 of 6 | 0 of 18 |

Source: Li et al. 2023 (doi:10.1038/s41467-023-39022-2), MIT Lincoln Laboratory and A-Alpha Bio; data file from the FLAb repository.